Measurements reported in US9402842B2, “Synthesis and use of dual tyrosyl-DNA phosphodiesterase I (Tdp1)—topoisomerase I (Top1) inhibitors” (Purdue Research Foundation, priority 2012, dated 2016).
“And” between values parts separate entries of the source, which are not always exact repeats. Equal values may be shown once. Read-outs that look alike come from different tables or passages of the source.

Sequences of proteins named here, by UniProt entry; tags and fusion partners are left off.
UniProt Q9NUW8, whole entry: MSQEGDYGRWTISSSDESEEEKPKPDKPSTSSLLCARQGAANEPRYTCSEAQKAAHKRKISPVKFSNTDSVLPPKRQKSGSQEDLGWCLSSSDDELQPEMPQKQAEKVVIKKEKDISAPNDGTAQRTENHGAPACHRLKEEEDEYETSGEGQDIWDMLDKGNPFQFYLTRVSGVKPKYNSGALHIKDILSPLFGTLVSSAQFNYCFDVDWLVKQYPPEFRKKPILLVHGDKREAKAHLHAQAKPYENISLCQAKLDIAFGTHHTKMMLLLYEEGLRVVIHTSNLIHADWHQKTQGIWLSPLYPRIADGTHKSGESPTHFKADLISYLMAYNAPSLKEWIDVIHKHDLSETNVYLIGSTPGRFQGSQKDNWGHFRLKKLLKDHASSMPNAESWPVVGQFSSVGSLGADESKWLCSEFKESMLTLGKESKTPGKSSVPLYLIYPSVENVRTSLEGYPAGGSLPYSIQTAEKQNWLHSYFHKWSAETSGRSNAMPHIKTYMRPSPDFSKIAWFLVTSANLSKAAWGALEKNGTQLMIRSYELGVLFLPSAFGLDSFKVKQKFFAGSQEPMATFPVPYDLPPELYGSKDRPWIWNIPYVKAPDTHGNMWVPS

Columns and labels:
Tdp1 [1] = target: T1, Tdp1 (Homo sapiens (Human), UniProt Q9NUW8); assay: Gel-based assay measuring the inhibition of recombinant Tdp1; assay type: biochemical
Tdp1 [2] = target: T1, Tdp1; assay: Surface plasmon resonance binding to immobilized Tdp1; conditions: SPR, 1:1 binding model
Procedure: The binding of the inhibitor to the surface-bound Tdp1 induces an increase in resonance units from the initial baseline until a steady-state phase of this interaction is achieved as depicted by a plateau. The decrease in resonance units corresponds to the dissociation or reversibility of the interaction. […] Steroid 7, which binds Tdp1 directly, is also competitive with the DNA substrate for the Tdp1 active site.
Surface Plasmon Resonance Analysis.
Binding experiments were performed on a Biacore T100 instrument (GE, Piscataway N.J.). […] Coupling reagents [N-ethyl-N′-(3-dimethylaminopropyl)-carbodiimide] (EDC), N-hydroxysuccinimide (NHS) and ethanolamine were purchased from GE Heathcare, (Piscataway N.J.). Neutravidin was obtained from Pierce. In order to protect the amine groups within the active site from modification, Tdp1 was bound with a 14-base oligonucleotide before coupling to the surface.
Binding experiments were performed as recently described.

HOP-62 = assay: NCI screen cytotoxicity, lung HOP-62; conditions: read-out: Cytotoxicity (GI50 in μM) lung HOP-62; 50% growth inhibition
UACC-62 = assay: NCI screen cytotoxicity, melanoma UACC-62; conditions: read-out: Cytotoxicity (GI50 in μM) melanoma UACC-62; 50% growth inhibition

Row | Compound | IC50 (Tdp1 [1]; determined by duplicate, read-out: Tdp1 (semiquantitative IC50 scale)) [µM] | IC50 (Tdp1 [1]; determined by quadruplicate, read-out: Tdp1 (μM), IC50 values of Tdp1 active compounds) [µM] | IC50 (Tdp1 [1]; recombinant (rec.) Tdp1, gel-based assay, listed as 14, read-out: Tdp1 IC50) | Kd (Tdp1 [2]) [µM] | ka (Tdp1 [2]) [l/Ms] | kd (Tdp1 [2]) [L/s] | GI50 (HOP-62) [µM] | GI50 (UACC-62) [µM]
1 | (6-Methyl-5,11-dioxo-6,11-dihydro-5H-indeno[1,2-c]isoquinolin-3-yl)-carbamic Acid [Compound 14 of (B)] | 37 to 111 | 61 ± 7 | 61.7 µM and 61 µM | 31 | 7.7e4 | 0.24 |  | 
2 | COc1ccc2c(c1)-c1c(c3ccc([N+](=O)[O-])cc3c(=O)n1CCCN)C2=O.Cl [Compound 51 of (B), 6-(3-Aminopropyl)-5,6-dihydro-8-methoxy-3-nitro-5,11-dioxo-11H-indeno[1,2-c]isoquinoline Hydrochloride] |  |  |  |  |  |  | 0.14 | 0.14
